Measured values published in US20240082358A1, “COMPOSITION COMPRISING INHIBITOR AGAINST EXPRESSION OF EXOSOMAL PD-L1 AS ACTIVE INGREDIENT FOR ENHANCING ANTICANCER EFFECT” (KYUNGPOOK NATIONAL UNIVERSITY INDUSTRY-ACADEMIC COOPERATION …, priority 2019, published 2024).

Legend:
PD-L1 [1] = assay: PD-L1 gene expression in melanoma cells by real-time polymerase chain reaction; format: cell-based; details: melanoma cells pretreated with IL-2; real-time PCR; FIG. 1(A), FIG. 2(A)
Experimental: After extracting mRNA (mRNA extraction kit, #9767; TaKaRa) from melanoma cells and melanoma cells pretreated with IL-2, the concentration of mRNA was measured using nanodrop (DS-11 Series Spectrophotometer; DeNovix). After synthesizing cDNA (SuperScript III First-Strand Synthesis System, Ref 18080-051; invitrogen) with 100 ng of mRNA, the gene expression levels of mouse PD-L1 (primer set: Forward: AGTTCCCAAAACATGAGGAT (SEQ ID NO: 1), Reverse: CACGTACAAGTCCTTTGGAG (SEQ ID NO: 2)) and human PD-L1 (primer set: Forward: GGTCATCCCAGAACTACCTC (SEQ ID NO: 3), Reverse: ACGGAAGATGAATGTCAGTG (SEQ ID NO: 4)) were analyzed by performing real-time polymerase chain reaction.

melanoma cells (B16F10) [2] = assay: Nanoparticle tracking analysis of exosomes derived from melanoma cells; format: cell-based, mouse; details: B16F10 treated with IL-2 10 μg/ml, 48 hours, FIG. 3(B)
Experimental: After treating melanoma cells (B16F10: 5×10^4 cells) with IL-2 at a concentration of 10 μg/ml and culturing for 48 hours, the size and concentration of exosomes derived from the culture supernatant were measured using fast video capture and a Nanosight LM10 (Malvern Instruments) equipped with particle tracking software.

Rab 27a = assay: Western blot of Rab protein involved in exosome secretion in melanoma cells; format: cell-based; details: melanoma cells treated with IL-2, FIG. 5(C)
Experimental: (§1) In order to re-verify the decrease in the number of exosomes derived from melanoma cells, the expression level of Rab protein involved in exosome secretion and expression was measured by Western blot. Cytoplasm or exosome proteins were separated by SDS-PAGE and transferred to a nitrocellulose membrane. Then, they were cultured with each of primary antibodies (ab18211; abcam/Rab5, ab50533; abcam/Rab7, ab55667; abcam/Rab 27a, #4970; Cell signaling/β-actin, ab10931; abcam/PD-L1), and with HRP conjugated secondary antibodies. Images were visualized using enhanced chemiluminescence (ECL) detection reagent (#34095; Thermo Scientific, #RPN2209; GE Healthcare) and quantified using ECL hyperfilm (AGFA, Morstel).

[3] = system: PD-L1 (programmed death ligand 1) protein; assay: Western blot / immunostaining of PD-L1 protein in melanoma cells; format: cell-based; details: melanoma cells treated with IL-2, re-verified by immunostaining, FIG. 1(B), 2(B), 2(D)
Experimental: as §1
In addition, to evaluate an effect of IL-2 in melanoma, the expression of PD-L1 (programmed death ligand 1) protein, which is known to be the most important for immune evasion of cancer cells, was measured.

exosomal PD-L1 = assay: Western blot and flow cytometry of exosomal PD-L1 derived from melanoma; format: cell-based; details: melanoma treated with IL-2; Western blot, confirmed by flow cytometry; FIG. 4(A), 4(B)
Experimental: Control melanoma cells were seeded at a density of about 2×10^6 cells/well, and cultured for 24 hours in DMEM medium without fetal bovine serum. After that, in order to isolate exosomes, each supernatant obtained from the cells was successively centrifuged at 300×g, 2500×g, and 10,000×g. Then, the supernatant was filtered through a 0.2 μm syringe filter and centrifuged at 120,000×g. The exosome pellet was resuspended in PBS and centrifuged again at 120,000×g. The purified exosome pellet was resuspended in PBS or 1× cell lysis buffer for the next experiment.
as §1, with “Morstel). […]” for “Morstel).”

melanoma cells (B16F10) [4] = assay: Co-culture assay of IL-2 treated melanoma cells and cytotoxic T cells; format: cell-based, mouse; details: melanoma cells pretreated with IL-2, co-culture with CTLL-2 cells (1:1 to 1:10); FIG. 8(B), 9(B)
Experimental: Melanoma cells (B16F10-luc-g5) having a cytoluminescent gene were used and analyzed using IVIS spectrum (PerkinElmer).
Melanoma cells were seeded in a 96-well plate at a density of about 5×10^3 cells/well, and melanoma cells pretreated with IL-2 were used as a control. After 48 hours of culture, the cells were cultured with different ratios of CTLL-2 cells (1:1 to 1:10). At the end of culture, MTS reagent was added to each well and cells cultured at 37° C. for 2 hours. After removing MTS containing the supernatant from each well, absorbance was measured at 490 nm using a microplate reader.

PD-L1 [5] = assay: PD-L1 expression in cancer tissue of melanoma transplanted mouse model; format: in vivo; details: mouse injected with IL-2; Western blot and immunochemical staining; FIG. 11
Experimental: B16F10 mouse melanoma cells 1×10 6 were subcutaneously injected into the right flank of balb/c mouse. After 10 days from the start of the experiment, PBS and rhIL-2 (50,000 IU/animal) were directly injected into the cancer tissue every day for 6 days. Thereafter, the cancer tissue (long axis*short axis 2*0.52) of the mouse was measured and compared once every 2 days using an engineering digital caliper.
After extracting the cancer tissue from the mouse of the above experiment and rapid cooling it using liquid nitrogen, RBC lysis buffer was used to remove red blood cells in the tissue, and then cells were obtained by centrifugation at 550×g. The supernatant was then centrifuged continuously at 300×g, 2,500×g, and 10,000×g. Then, the expression of PD-L1 was checked by Western blot and immunochemical staining using the isolated cells.

IL-2: cytokine IL-2, used as a treatment for stage 4 melanoma; inhibitor against expression of exosomal PD-L1
reduction of gene expression of PD-L1 compared to the control group (PD-L1 [1]): about 50%
number of exosomes compared to the control group (melanoma cells (B16F10) [2]): decreased
protein expression of Rab 27a compared to the control group (Rab 27a): significantly reduced
protein expression of PD-L1 compared to the control group [3]: significantly reduced
expression of exosomal PD-L1 compared to the control group (exosomal PD-L1): significantly reduced
viability of melanoma cells in co-culture with cytotoxic T cells (melanoma cells (B16F10) [4]): significantly reduced
expression level of PD-L1 in cancer tissue compared to the control group (PD-L1 [5]): significantly reduced
